Values of other authors as cited in patent US4921695A, “Antianginal plate for treating ischemic heart disease” (dated 1990).

Conditions: tablets per os

## O=[N+]([O-])O[C@H]1CO[C@H]2[C@@H]1OC[C@H]2O[N+](=O)[O-]
  Bioavailability per os: low
  Form in which active principle reaches the blood: inactivated form
  Metabolism in the liver: rapidly metabolized in the liver
